US7411039B2, “GLP-2 compounds, formulations, and uses thereof” (Novo Nordisk A/S, priority 2002, dated 2008)
Several values for one entry are separate records, joined by “and”; a condition that tells them apart may be missing. Identical values can stand only once. Like-named read-outs stand apart in the source and are kept apart here.

Key:
[1] = tested on: growth of the small intestine in mice; format: in vivo; settings: for E0, parameter estimate (CV %), small intestinal weight / E0, parameter estimate (CV %), small intestinal weight relative to body weight: background efficacy level at D=0; for E0, parameter estimate (CV %), small intestinal weight / E0, parameter estimate (CV %), small intestinal weight relative to body weight / γ (shape factor, Hillslope), parameter estimate (CV %), small intestinal weight / γ (shape factor, Hillslope), parameter estimate (CV %), small intestinal weight relative to body weight / Emax, parameter estimate (CV %), small intestinal weight / Emax, parameter estimate (CV %), small intestinal weight relative to body weight: nonlinear regression of dose-response; for E0, parameter estimate (CV %), small intestinal weight / E0, parameter estimate (CV %), small intestinal weight relative to body weight / Emax, parameter estimate (CV %), small intestinal weight / Emax, parameter estimate (CV %), small intestinal weight relative to body weight: mice, daily s.c. for 10 days; for Small intestinal weight, Mean ± SD / Small intestinal weight/body weight, Mean ± SD: group mean; for Emax − E0, parameter estimate (CV %), small intestinal weight / Emax − E0, parameter estimate (CV %), small intestinal weight relative to body weight: treatment-induced increase, secondary parameter of curve fitting
Text: Bioassay in Mice. Dose-Response Study of GLP-2 Derivatives. • Table 3. Model parameter estimates following nonlinear regression analysis of dose and small intestinal weights relative to body weight. • Table 4. Model parameter estimates following nonlinear regression analysis of dose and small intestinal weights. • Table 5. Body weight, small intestinal weight and relative small intestinal weight of mice treated with L17K(3-(tetradecanoylamino)propionyl)/K30R-[…]. • Table 6. […]. Body weight, small intestinal weight and relative small intestinal weight of mice treated with A2G-[…]. • Table 8. Body weight, small intestinal weight and relative small intestinal weight of control mice.
The following GLP-2 derivatives and analog were tested: • 1. L17K(3-(tetradecanoylamino)propionyl)/K30R-[…]. • 2. L17K(3-(hexadecanoylamino)propionyl)/K30R-[…]. • 3. A2G-[…]. All derivatives were dissolved and diluted in buffer containing:
Disodiumhydrogenphosphate 1.42 mg/ml, Mannitol 36.9 mg/ml, Phenol 5 mg/ml, pH 8.0.
189 female C57b1 mice were used in the study. All animals were divided into four groups:
• Group 1: Controls • Group 2: L17K(3-(tetradecanoylamino)propionyl)/K30R-[…] • Group 3: L17K(3-(hexadecanoylamino)propionyl)/K30R-[…] • Group 4: A2G-[…] Dosing
All animals received a daily subcutaneous injection of 100 pi for 10 days with the following doses:
At Day 10 the animals were weighted before they were sacrificed. The intestine was carefully removed from each animal and the small intestine dissected, rinsed with saline and weighted.
Body weight, small intestinal weight and small intestinal weight relative to body weight were reported for all animals and used generating the dose-response relationship. The treatment-induced increase in both absolute and relative small intestinal weight is calculated for each treatment group, since this is considered the pharmacologically relevant efficacy parameter.
A generalised Michaelis-Menten model, with shape factor γ corresponding to the Hillslope in the semilogarithmic dose-response curve and E0 representing the background efficacy level at D=0, was used as dose-response model. Emax is the maximal effect observed and ED50 is the dose that gives an effect equal to 50% of Emax. The model was used because of the higher flexibility compared to a four parameter logistic dose-response model (1). The model was fitted to data using nonlinear regression in order to determine estimates for Emax, ED50, γ and E0.
[formula] The goodness of fit was evaluated by visual inspection of plots showing observed data points together with fitted curves and residuals plots. Parameter estimates are presented together with CV % and 95% C.I.
In order to account for the variability in the background efficacy level, control data were included in the nonlinear regression analysis as D=0 for all three treatment groups.
The nonlinear regression analyses were performed using WinNonlin Professional, version 3.1, Pharsight. The nonlinear regression was performed using the Gauss-Newton (Levenberg and Hartley) algorithm.

[2] = Metabolic stability of GLP-2 derivatives in vivo in pigs (terminal plasma elimination half-life T½); settings: pig, sc, female LYD crossbred pigs, subcutaneous injection, 0.5 nmol/kg, plasma analysed by ELISA
Protocol: Metabolic stability of selected GLP-2 derivatives. The degradation of GLP-2 derivatives in vivo in pigs have been studied and T½ value determined for selected GLP-2 derivatives according to the present invention (T½: Terminal plasma elimination half-life) (Table 9).
All test substances were dissolved in 20 mM phosphate buffer pH 7.4.
Female LYD crossbred pigs weighing 50-75 kg. were used. All test substances were dosed 0.5 nmol/kg. The dosing volume was approx. 1 ml per animal.
Subcutaneous injections were given at the right side of the neck approximately 7 cm from the ear and 9 cm from the middle of the neck. Injections were given with a stopper on the needle, allowing 0.5 cm of the needle to be inserted.
Blood samples were drawn from an ear vein catheter. The catheter was rinsed with heparin 50 IE/ml in physiological saline. During sampling the first ml blood drawn was discarded. Blood samples were kept on ice for no longer than 20 min. before centrifugation (4° C., 4000 rpm, 10 min). After centrifugation plasma was isolated and transferred to Micronic-tubes in duplo. The plasma samples were analysed by ELISA.

[3] = absolute small intestinal weight
[4] = dose level A, 35 μg daily s.c. for 10 days
[5] = dose level B, 17.5 μg daily s.c. for 10 days
[6] = dose level C, 8.75 μg daily s.c. for 10 days
[7] = dose level D, 4.375 μg daily s.c. for 10 days
[8] = dose level E, 2.188 μg daily s.c. for 10 days
[9] = dose level F, 1.094 μg daily s.c. for 10 days
[10] = dose level G, 0.547 μg daily s.c. for 10 days
[11] = relative small intestinal weight
[12] = relative small intestinal weight as efficacy parameter
[13] = small intestinal weight as efficacy parameter
[14] = dose level A, 22 μg daily s.c. for 10 days
[15] = dose level B, 11 μg daily s.c. for 10 days
[16] = dose level C, 5.5 μg daily s.c. for 10 days
[17] = dose level D, 2.75 μg daily s.c. for 10 days
[18] = dose level E, 1.375 μg daily s.c. for 10 days
[19] = dose level F, 0.678 μg daily s.c. for 10 days
[20] = dose level G, 0.344 μg daily s.c. for 10 days

## CCCCCCCCCCCCCCCC(=O)NCCC(=O)NCCCC[C@H](NC(=O)[C@H](CC(N)=O)NC(=O)[C@H](CC(=O)O)NC(=O)[C@H](CC(C)C)NC(=O)[C@@H](NC(=O)[C@@H](NC(=O)[C@H](CC(N)=O)NC(=O)[C@H](CCSC)NC(=O)[C@H](CCC(=O)O)NC(=O)[C@H](CC(=O)O)NC(=O)[C@H](CO)NC(=O)[C@H](Cc1ccccc1)NC(=O)[C@H](CO)NC(=O)CNC(=O)[C@H](CC(=O)O)NC(=O)[C@H](C)NC(=O)[C@@H](N)Cc1c[nH]cn1)[C@@H](C)O)[C@@H](C)CC)C(=O)N[C@@H](C)C(=O)N[C@@H](C)C(=O)N[C@@H](CCCNC(=N)N)C(=O)N[C@@H](CC(=O)O)C(=O)N[C@@H](Cc1ccccc1)C(=O)N[C@H](C(=O)N[C@@H](CC(N)=O)C(=O)N[C@@H](Cc1c[nH]c2ccccc12)C(=O)N[C@@H](CC(C)C)C(=O)N[C@H](C(=O)N[C@@H](CCC(N)=O)C(=O)N[C@H](C(=O)N[C@@H](CCCNC(=N)N)C(=O)N[C@H](C(=O)N[C@H](C(=O)N[C@@H](CC(=O)O)C(=O)O)[C@@H](C)O)[C@@H](C)CC)[C@@H](C)O)[C@@H](C)CC)[C@@H](C)CC [L17K(3-(hexadecanoylamino)propionyl)/K30R-GLP-2(1-33)]
[1]; [3]
  treatment-induced increase (Emax-E0) compared to A2G-GLP-2(1-33): 8.6 fold and 8 fold
[1]
  E0, parameter estimate (CV %), small intestinal weight: 1.1008 (3.8) g
  E0, parameter estimate (CV %), small intestinal weight relative to body weight: 0.0424 (2.9)
  γ (shape factor, Hillslope), parameter estimate (CV %), small intestinal weight: 0.5889 (52.9)
  γ (shape factor, Hillslope), parameter estimate (CV %), small intestinal weight relative to body weight: 0.7249 (41.2)
  Emax, parameter estimate (CV %), small intestinal weight: 2.0310 (13.1) g
  Emax, parameter estimate (CV %), small intestinal weight relative to body weight: 0.0727 (5.4)
  Emax − E0, parameter estimate (CV %), small intestinal weight: 0.9302 (29.3) g
  Emax − E0, parameter estimate (CV %), small intestinal weight relative to body weight: 0.0303 (13.7)
[1]; [4]
  Small intestinal weight, Mean ± SD: 1.8463 ± 0.1546 g
  Small intestinal weight/body weight, Mean ± SD: 0.0697 ± 0.0055
[1]; [5]
  Small intestinal weight, Mean ± SD: 1.8650 ± 0.3423 g
  Small intestinal weight/body weight, Mean ± SD: 0.0693 ± 0.0075
[1]; [6]
  Small intestinal weight, Mean ± SD: 1.8325 ± 0.2052 g
  Small intestinal weight/body weight, Mean ± SD: 0.0718 ± 0.0079
[1]; [7]
  Small intestinal weight, Mean ± SD: 1.5713 ± 0.1492 g
  Small intestinal weight/body weight, Mean ± SD: 0.0619 ± 0.0040
[1]; [8]
  Small intestinal weight, Mean ± SD: 1.5850 ± 0.1996 g
  Small intestinal weight/body weight, Mean ± SD: 0.0618 ± 0.0050
[1]; [9]
  Small intestinal weight, Mean ± SD: 1.5175 ± 0.1423 g
  Small intestinal weight/body weight, Mean ± SD: 0.0602 ± 0.0038
[1]; [10]
  Small intestinal weight, Mean ± SD: 1.3886 ± 0.1313 g
  Small intestinal weight/body weight, Mean ± SD: 0.0541 ± 0.0033
[1]; lowest dose
  effect induced by the lowest dose used: 30-40 % of Emax
[1]; [11]
  treatment-induced increase (Emax-E0) compared to A2G-GLP-2(1-33): 2.5 fold
[1]; [12]
  increase in Emax compared to A2G-GLP-2(1-33): 33%
[1]; [13]
  increase in Emax compared to A2G-GLP-2(1-33): 67%
[2]
  half-life: 4.4 ± 1.1 h

## CCCCCCCCCCCCCC(=O)NCCC(=O)NCCCC[C@H](NC(=O)[C@H](CC(N)=O)NC(=O)[C@H](CC(=O)O)NC(=O)[C@H](CC(C)C)NC(=O)[C@@H](NC(=O)[C@@H](NC(=O)[C@H](CC(N)=O)NC(=O)[C@H](CCSC)NC(=O)[C@H](CCC(=O)O)NC(=O)[C@H](CC(=O)O)NC(=O)[C@H](CO)NC(=O)[C@H](Cc1ccccc1)NC(=O)[C@H](CO)NC(=O)CNC(=O)[C@H](CC(=O)O)NC(=O)[C@H](C)NC(=O)[C@@H](N)Cc1c[nH]cn1)[C@@H](C)O)[C@@H](C)CC)C(=O)N[C@@H](C)C(=O)N[C@@H](C)C(=O)N[C@@H](CCCNC(=N)N)C(=O)N[C@@H](CC(=O)O)C(=O)N[C@@H](Cc1ccccc1)C(=O)N[C@H](C(=O)N[C@@H](CC(N)=O)C(=O)N[C@@H](Cc1c[nH]c2ccccc12)C(=O)N[C@@H](CC(C)C)C(=O)N[C@H](C(=O)N[C@@H](CCC(N)=O)C(=O)N[C@H](C(=O)N[C@@H](CCCNC(=N)N)C(=O)N[C@H](C(=O)N[C@H](C(=O)N[C@@H](CC(=O)O)C(=O)O)[C@@H](C)O)[C@@H](C)CC)[C@@H](C)O)[C@@H](C)CC)[C@@H](C)CC [L17K(3-(tetradecanoylamino)propionyl)/K30R-GLP-2(1-33)]
[1]; [3]
  treatment-induced increase (Emax-E0) compared to A2G-GLP-2(1-33): 4.9 fold
[1]
  E0, parameter estimate (CV %), small intestinal weight: 1.0993 (3.5) g
  E0, parameter estimate (CV %), small intestinal weight relative to body weight: 0.0426 (3.0)
  γ (shape factor, Hillslope), parameter estimate (CV %), small intestinal weight: 1.8184 (38.9)
  γ (shape factor, Hillslope), parameter estimate (CV %), small intestinal weight relative to body weight: 2.0485 (32.2)
  Emax, parameter estimate (CV %), small intestinal weight: 1.6270 (2.9) g
  Emax, parameter estimate (CV %), small intestinal weight relative to body weight: 0.0636 (2.2)
  Emax − E0, parameter estimate (CV %), small intestinal weight: 0.5278 (12.3) g
  Emax − E0, parameter estimate (CV %), small intestinal weight relative to body weight: 0.0211 (9.3)
[1]; [14]
  Small intestinal weight, Mean ± SD: 1.5188 ± 0.1996 g
  Small intestinal weight/body weight, Mean ± SD: 0.0602 ± 0.0060
[1]; [15]
  Small intestinal weight, Mean ± SD: 1.7486 ± 0.1857 g
  Small intestinal weight/body weight, Mean ± SD: 0.0670 ± 0.0066
[1]; [16]
  Small intestinal weight, Mean ± SD: 1.5975 ± 0.1921 g
  Small intestinal weight/body weight, Mean ± SD: 0.0631 ± 0.0067
[1]; [17]
  Small intestinal weight, Mean ± SD: 1.5563 ± 0.2025 g
  Small intestinal weight/body weight, Mean ± SD: 0.0618 ± 0.0072
[1]; [18]
  Small intestinal weight, Mean ± SD: 1.3813 ± 0.1131 g
  Small intestinal weight/body weight, Mean ± SD: 0.0561 ± 0.0038
[1]; [19]
  Small intestinal weight, Mean ± SD: 1.2900 ± 0.1896 g
  Small intestinal weight/body weight, Mean ± SD: 0.0487 ± 0.0055
[1]; [20]
  Small intestinal weight, Mean ± SD: 1.1413 ± 0.2003 g
  Small intestinal weight/body weight, Mean ± SD: 0.0456 ± 0.0064
[1]; [11]
  treatment-induced increase (Emax-E0) compared to A2G-GLP-2(1-33): 1.7 fold
[1]; [12]
  increase in Emax compared to A2G-GLP-2(1-33): 16%
[1]; [13]
  increase in Emax compared to A2G-GLP-2(1-33): 34%
[2]
  half-life: 3.5 ± 1.8 h
